The results in this text go back to ChEMBL document CHEMBL3400006, “Improving the passive permeability of macrocyclic peptides: Balancing permeability with other physicochemical properties” (Bioorg Med Chem, 2015).

A short description of this data set: Permeability of the compound at donor pH 7.4 and acceptor pH 7.4 after 3 hrs incubation by PAMPA analysis. The following applies: read-out: permeability. Type of data set: ADME. Background: In PAMPA a lipid-coated filter parts donor from acceptor wells.
Consider `CC(C)C[C@@H]1NC(=O)[C@H](Cc2ccc(O)cc2)NC(=O)[C@@H]2CCCN2C(=O)[C@H](CC(C)C)NC(=O)[C@H](CC(C)C)NC(=O)[C@@H](CC(C)C)NC1=O`, for which the Papp at 3 h was found to be 11.1 ×10⁻⁶ cm/s.

Take `CC(C)C[C@@H]1NC(=O)[C@@H](CC(C)C)NC(=O)[C@@H](CC(C)C)NC(=O)[C@H](Cc2ccc(O)cc2)NC(=O)[C@H]2CCCN2C(=O)[C@@H](CC(C)C)NC1=O`: the Papp at 3 h is 41.5 ×10⁻⁶ cm/s.

As for `CC(C)C[C@@H]1NC(=O)[C@H](Cc2ccc(O)cc2)N(C)C(=O)[C@@H]2CCCN2C(=O)[C@H](CC(C)C)NC(=O)[C@H](CC(C)C)N(C)C(=O)[C@@H](CC(C)C)N(C)C1=O`, the Papp at 3 h was 36.3 ×10⁻⁶ cm/s.

On to `CC(C)C[C@@H]1NC(=O)[C@H](CC(C)C)NC(=O)[C@@H](CC(C)C)NC(=O)[C@H](Cc2ccc(O)cc2)NC(=O)[C@@H]2CCCN2C(=O)[C@H](CC(C)C)NC1=O`, for which the Papp at 3 h is 4.1 ×10⁻⁶ cm/s.
